Results published in US5270344A, “Method of treating a systemic disorder using trioxolane and diperoxide compounds” (priority 1992, dated 1993).

Test system: yeast infections of the vagina
Conditions: suppository every 24 hours

Clc1ccccc1C(c1ccccc1)(c1ccccc1)n1ccnc1 [clotrimazole]
Irritation complaints: a number of these patients complain of irritation
Reddening of the vagina (within 2 days for Example 3): a significant reddening of the vagina is present
